1 compound from ChEMBL document CHEMBL1126394, “Synthesis of 1-(2-Indolyl)pyridinium salts: a prodrug approach to acetylcholinesterase inhibition” (Bioorg Med Chem Lett, 1992) can be followed below.

The chains behind the UniProt entries cited, without tags or fusion partners. Where a name states a change or a piece, a line headed by the entry shows the natural chain unless it says otherwise.
UniProt O42275: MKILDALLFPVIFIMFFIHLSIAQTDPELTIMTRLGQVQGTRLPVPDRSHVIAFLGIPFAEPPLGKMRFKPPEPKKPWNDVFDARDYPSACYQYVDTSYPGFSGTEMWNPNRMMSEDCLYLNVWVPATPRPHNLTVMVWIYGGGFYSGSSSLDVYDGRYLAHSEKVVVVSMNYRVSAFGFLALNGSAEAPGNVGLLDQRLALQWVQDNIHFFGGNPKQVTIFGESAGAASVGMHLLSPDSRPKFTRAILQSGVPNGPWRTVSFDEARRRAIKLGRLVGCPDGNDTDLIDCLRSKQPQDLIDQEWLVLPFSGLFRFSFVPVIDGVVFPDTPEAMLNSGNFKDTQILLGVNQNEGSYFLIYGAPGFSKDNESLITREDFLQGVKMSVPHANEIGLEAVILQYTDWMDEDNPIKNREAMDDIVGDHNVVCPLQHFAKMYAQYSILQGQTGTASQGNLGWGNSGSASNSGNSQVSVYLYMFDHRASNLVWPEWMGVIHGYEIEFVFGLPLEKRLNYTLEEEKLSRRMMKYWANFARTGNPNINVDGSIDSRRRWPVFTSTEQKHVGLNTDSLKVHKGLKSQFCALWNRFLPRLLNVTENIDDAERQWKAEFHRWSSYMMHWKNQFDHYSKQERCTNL

The target in this assay is Acetylcholinesterase (Electrophorus electricus, UniProt O42275). The assay can be described thus: Inhibitory activity against acetylcholinesterase as a prodrug was demonstarted.

Turning to `CNC(=O)Oc1ccc2c(c1)[C@]1(C)CCN(C)[C@@H]1N2C` [PHYSOSTIGMINE], the IC50 stood at 1 nM.

As a reminder, the IC50 is the point on the concentration scale where inhibition reaches its midpoint.
